Earlier results in patent publication US4921695A, “Antianginal plate for treating ischemic heart disease” (dated 1990).
This is a selection: effects in other tests are not listed, and their absence says nothing.

Details: tablets per os

O=[N+]([O-])OCC(CO[N+](=O)[O-])(CO[N+](=O)[O-])CO[N+](=O)[O-]
Form in which active principle reaches the blood: inactivated form
